## scFv variants of Ab-14 (light chain) against a SARS-CoV-2 spike peptide

The target is the same throughout: PDVDLGDISGINAS, from the HR2 region of SARS-CoV-2 spike.

Parent scFv Ab-14: VH joined to VL by three GGGGS repeats. Changes lie in the light chain CDRs alone.
VH: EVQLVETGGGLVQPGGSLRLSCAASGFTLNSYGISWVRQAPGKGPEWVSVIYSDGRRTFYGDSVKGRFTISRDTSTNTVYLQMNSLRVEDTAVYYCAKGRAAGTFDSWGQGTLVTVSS
VL: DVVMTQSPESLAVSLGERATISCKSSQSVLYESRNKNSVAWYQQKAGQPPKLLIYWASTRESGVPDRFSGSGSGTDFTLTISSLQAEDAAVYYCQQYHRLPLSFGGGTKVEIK

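The starting antibody came from a phage panning campaign against this peptide. These sequences belong to a second round, designed from the earlier measurements on random variants of the parent. Several design methods are mixed in this list. In AlphaSeq, yeast of one mating type display the scFv and yeast of the other type display the target. The frequency of each diploid, read from paired DNA barcodes, reflects how well the two displayed proteins bind. Read counts were normalised to the haploid input and turned into Kd by a linear fit to BCL2-family pairs of known affinity, for each replicate. The assay was run in six technical replicates.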

Each variant is given by its three light chain CDRs, as the data file delimits them; those of the parent are KSSQSVLYESRNKNSVA, WASTRES, QQYHRLPLS.
This list holds designs with more than six substitutions.
The Kd shown is the geometric mean over detected replicates; a lower Kd is a better binder.
An entry "not detected" has no value in the source: the pair was not observed among the diploids in any replicate. This suggests poor binding but is not conclusive.
Background: pairings of all light chain designs with three empty control strains gave a value in 4% of cases (median 430 nM, 5th percentile 38 nM). Values in that range, when seen in few replicates, are hard to tell from nonspecific mating.

| CDR-L1 | CDR-L2 | CDR-L3 | apparent Kd | replicates with signal |
|---|---|---|---|---|
| TISGMANYESTNKNSVA | ELTTRGS | QQYERLPLS | 3.1 nM | 6 of 6 |
| KLWAYFQGLESKMQNVA | DGIYRST | QQYDRLPLS | 10 nM | 6 of 6 |
| KLSQFSRMESRNKNSVA | DNSTRES | QQYDRLPLS | 720 nM | 4 of 6 |
| MFSQSVMYGSFLRNSVA | QTSTRES | QQYDRLPLS | 2.4 nM | 6 of 6 |
| KISQSVEYEQRDKNSVA | NASTRCQ | QQYHRLPLS | 1.2 nM | 6 of 6 |
| HMQNESQGDSRQLNNVA | ETTVVET | QQYATLPLT | 81 nM | 6 of 6 |
| IVSQLMLWGWHAKNSIA | EAQTRLN | QQYDRLPLF | not detected | 0 of 6 |
| KLLQSTVIESFNKNNVA | EMSTRES | QSYDRLPLS | 110 nM | 6 of 6 |
| KLLQSVNYGSRALNSVA | QMETRED | QQYERLPLS | not detected | 0 of 6 |
| RIFYREEEDLRHESSIA | NGSARVF | QQYYMLPLS | 9.7 nM | 6 of 6 |
| KVQQWQLYESRMKNAVA | NASTRCD | QQYHRLPLS | 2.0 nM | 6 of 6 |
| KQSQLVWYEQRNKNNVA | EGSTRES | QQYHRLPLS | 730 pM | 6 of 6 |
| KQSQSGMMESRNQNQVA | QASTRLS | QQYHRLPLS | 2.6 nM | 6 of 6 |
| KLSGSVCMLQRNDNSVA | DASTRES | QQYHRLPLS | 4.6 nM | 6 of 6 |
| KISQAVNYLSRVMNSVA | DNSTRES | QQYFRLPLS | 690 pM | 6 of 6 |
| KLTSLTGTEKVRGNNVA | EMETRES | QQYNRLPLA | 4.3 nM | 6 of 6 |
| KISQTVNVGSKNKNSLA | EMSTREF | QDYHRLPLS | 11 nM | 6 of 6 |
| KLREVQHVETKQKNNVA | NNSTRES | QDYYRLPLS | 37 nM | 1 of 6 |
| KIGMTLNTLMHQKNNVA | DLVVREN | QQYHRLPLS | 16 nM | 6 of 6 |
| KIGATLNTLEHKQNNVA | DLVTREN | QQYHRLPLS | 1.6 nM | 6 of 6 |
| AFTESIFYGQRDSNAIA | HADVVEK | QQYFRFPLA | 47 nM | 6 of 6 |
| KSEYSCLGESRNCNSVA | SASTREL | QQYHRLPLS | 4.6 nM | 6 of 6 |
| HMSMLTLGGMRHRNSVA | QMTTREN | QQYDRLPLA | 18 nM | 6 of 6 |
| KLSIMYQHTSREKNNIA | ERSTRES | QQYHHLPLS | 21 nM | 6 of 6 |
| KWMEGWLYESRNKNSVA | EGSTRES | QQYHRLPLS | 3.2 nM | 6 of 6 |
| QIFFNDFQYGIESQNIA | QGSMREV | QQYARLPLV | 2.2 nM | 6 of 6 |
| KIDQWKLGESRNKNSVA | DASQRES | QQYHRLPLS | 1.3 nM | 6 of 6 |
| TISNSAQQESHNKNSVA | DLSVRGS | QQYDRLPLS | 190 nM | 4 of 6 |
| KISFNFLIESRNLNSVA | EMTTREY | QDYDRLPLS | not detected | 0 of 6 |
| KLRQSCEYEDRNKNSVA | HASQRCS | QQYHRLPLS | 2.4 nM | 6 of 6 |
| KISQMIRVGSTAVNSIA | EEVTRAK | QQYHRLPLA | 4.0 nM | 6 of 6 |
| KLASVTGTEKVHGNNVA | EMEMREN | QQYNRLPLS | 2.1 nM | 6 of 6 |
| HVSSMDMTDGGIIKSVA | GDKETER | QQYMRLPLS | 31 nM | 5 of 6 |
| KYSGSQLYEDRMVNSVA | NASQREE | QQYHRLPLS | 1.2 nM | 6 of 6 |
| TISMVMNHMTRIDHNVA | NQDMREN | QQYDRLPLS | 2.6 nM | 6 of 6 |
| SITQLVAYGSRNKNSVA | QMSTRED | QQYDRLPLS | 3.6 nM | 5 of 6 |
| TISQVMNTLSRQGNNVA | DLAEREK | QQYFRLPLS | 3.5 nM | 5 of 6 |
| KFSQAVNSMSVSKSAVA | EMSTRPE | QQYNRLPLA | not detected | 0 of 6 |
| NITESMYFQSRNKNNIA | EMSTRER | QHYHRLPLS | 2.2 nM | 6 of 6 |
| KLEQSQLYESRNKNNVA | SASHREH | QQYHRLPLS | 1.3 nM | 6 of 6 |
| MITAMLRGVGRDKNSVA | NAQTRES | QHYHRLPLS | 42 nM | 5 of 6 |
| KLIQSVAMSSRNKDSIA | DNSTRED | QQYHRLPLS | 7.4 nM | 6 of 6 |
| MFSQLMAYGSRYANSVA | QASTRED | QQYHRLPLS | 1.6 nM | 6 of 6 |
| KLGMTLNQLMHKKNNVA | DLVERAN | QQYHRLPLS | 2.6 nM | 6 of 6 |
| NMKVGLNFEDINHQAIA | SVDEREK | QQYSRLPLT | 2.9 nM | 6 of 6 |
| NVGQLMDGETRNRNNVA | HQTTRED | QHYHRLPLS | 1.2 nM | 6 of 6 |
| KLYQSMGYLSHAKNSIA | DMSRREN | QQYHRLPLS | 1.8 nM | 6 of 6 |
| KLYQMTGIESHATNSLA | DANRRED | QQYHRLPLS | 1.1 nM | 6 of 6 |
| KLSQVTHSESRSKNSIA | EMVTREV | QQYDRLPLS | 5.5 nM | 6 of 6 |
| MMSSLMGYESRHINNVA | QTTTREE | QQYDRLPLM | 3.3 nM | 6 of 6 |
| MISDTGLHDSRMQNSVA | NNQTREA | QQYHRLPLS | 88 nM | 6 of 6 |
| KLSQSEPYESRCFNSVA | NASTRCS | QQYHRLPLS | 1.9 nM | 6 of 6 |
| KLQQADLYESRNANSVA | QASQRSS | QCYHRLPLS | 18 nM | 5 of 6 |
| MVGQGLMGESRAKNSIA | QASMRFD | QQYHRLPLI | 61 nM | 5 of 6 |
| KLDYLNGEMDIGGDSIA | EVSTAGM | QQYIRLPLS | 75 nM | 6 of 6 |
| HITYGMNVAGRHSSSIA | QAEERAK | QQYDRLPLI | 14 nM | 6 of 6 |
| TISTSAMYESTNKNSVA | ELSTRGS | QQYERLPLS | 66 nM | 3 of 6 |
| ALSQSMDMTSRNYNSVA | DLSTREN | QQYHRLPLS | 1.6 nM | 6 of 6 |
| KIGMTLNQLMHKKNNVA | DLVTREQ | QQYHRLPLS | 4.0 nM | 6 of 6 |
| KFEGSHLYESRMGNSVA | NASQRED | QQYHRLPLS | 490 pM | 6 of 6 |
| ELFFNDDQLQEQSNNIA | HASLRSV | QQYYHLPLV | 28 nM | 6 of 6 |
| KLSQTVLFWGHAINSVA | EMETREN | QQYDRLPLS | 31 nM | 6 of 6 |
| KLDQSGLYGSRNKNSVA | EASCRES | QQYHRLPLY | 6.3 nM | 6 of 6 |
| HFSVETMEFMGQNKNIA | EVTTTML | QQYARLPFM | 68 nM | 6 of 6 |
| KFSQSKEMVNKEGESIA | GSHTIQE | QQYSRLPLA | 3.7 nM | 6 of 6 |
| KLPQSWWYESRMKQSVA | NASERES | QQYHRLPLS | 1.3 nM | 6 of 6 |
| KVSGFMRGLMMRKDSIA | DNETRES | QQYDRLPLS | 36 nM | 6 of 6 |
| KLPAWQDYESRNKASVA | QASTRES | QQYHRLPLS | 3.2 nM | 6 of 6 |
| KLYISTMLESHNKNSIA | DLSTRGN | QQYHRLPLS | 3.8 nM | 6 of 6 |
| KIIDMSLVSMRAHNSIA | DNDMRNY | QQYDRLPLS | 1.6 nM | 6 of 6 |
| ELMVFPTNAGMTQANIA | DASHSTD | QQYGRLPLM | 16 nM | 6 of 6 |
| MMSQVTGLGQRHRNNVA | QTSTREV | QQYDRLPLI | 6.1 nM | 6 of 6 |
| TLSDVMYMESRNYNSVA | DLVKRES | QQYHRLPLS | 1.1 nM | 6 of 6 |
| SLYENYQWGGQHTNAVA | DANQMMR | QHYNRLPLA | 1.8 nM | 5 of 6 |
| MISQLYNMGQFAINSVA | QASIRNE | QQYDRLPLT | 24 nM | 6 of 6 |

The parent sequence was in this pool as ten entries: three were never detected, three once, and four in most replicates, with averages from 2.2 nM to 240 nM.
In the paper, a design with two or fewer of six values counts as a poor binder.
A sequence measured in both rounds can read differently, since the two assays cover different ranges.

Source: Li et al. 2023 (doi:10.1038/s41467-023-39022-2), MIT Lincoln Laboratory and A-Alpha Bio; data file from the FLAb repository.